Consider one compound from ChEMBL document CHEMBL1138126, “Tyrosine kinase inhibitors. 19. 6-Alkynamides of 4-anilinoquinazolines and 4-anilinopyrido[3,4-d]pyrimidines as irreversible inhibitors of the erbB family of tyrosine kinase receptors” (J Med Chem, 2006).

The chains behind the UniProt entries cited, without tags or fusion partners.
UniProt P00533, whole entry: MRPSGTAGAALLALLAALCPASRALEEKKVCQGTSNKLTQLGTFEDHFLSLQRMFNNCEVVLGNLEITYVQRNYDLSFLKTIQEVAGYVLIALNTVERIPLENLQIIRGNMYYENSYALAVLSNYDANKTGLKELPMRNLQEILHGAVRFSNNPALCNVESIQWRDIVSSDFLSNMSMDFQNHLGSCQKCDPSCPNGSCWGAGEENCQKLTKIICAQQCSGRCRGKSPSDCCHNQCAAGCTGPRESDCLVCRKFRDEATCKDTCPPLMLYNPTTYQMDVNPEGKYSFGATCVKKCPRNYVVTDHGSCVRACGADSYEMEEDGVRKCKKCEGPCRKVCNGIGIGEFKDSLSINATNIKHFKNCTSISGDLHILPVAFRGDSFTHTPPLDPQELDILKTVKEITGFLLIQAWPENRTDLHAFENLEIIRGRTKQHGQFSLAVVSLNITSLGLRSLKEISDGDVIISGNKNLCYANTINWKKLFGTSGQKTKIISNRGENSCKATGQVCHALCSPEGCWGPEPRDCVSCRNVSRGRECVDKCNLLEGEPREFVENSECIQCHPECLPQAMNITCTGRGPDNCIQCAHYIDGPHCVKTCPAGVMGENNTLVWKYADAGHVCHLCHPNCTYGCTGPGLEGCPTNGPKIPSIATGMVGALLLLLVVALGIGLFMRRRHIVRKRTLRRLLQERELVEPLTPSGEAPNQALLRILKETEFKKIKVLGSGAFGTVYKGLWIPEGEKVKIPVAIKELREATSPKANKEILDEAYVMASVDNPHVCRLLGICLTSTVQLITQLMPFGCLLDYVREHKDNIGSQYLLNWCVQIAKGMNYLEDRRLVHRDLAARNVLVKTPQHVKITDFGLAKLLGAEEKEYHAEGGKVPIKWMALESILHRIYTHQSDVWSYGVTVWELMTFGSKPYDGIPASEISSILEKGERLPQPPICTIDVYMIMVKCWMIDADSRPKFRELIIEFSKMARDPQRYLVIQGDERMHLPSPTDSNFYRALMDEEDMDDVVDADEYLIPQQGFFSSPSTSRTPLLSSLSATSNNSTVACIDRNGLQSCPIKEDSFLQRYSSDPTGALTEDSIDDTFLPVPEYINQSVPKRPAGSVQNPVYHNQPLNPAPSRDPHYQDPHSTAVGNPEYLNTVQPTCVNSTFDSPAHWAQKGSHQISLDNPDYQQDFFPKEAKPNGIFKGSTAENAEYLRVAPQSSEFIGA

Usually IC50 stands for the concentration that inhibits the measured activity by half. Read a low IC50 as greater potency.

Assay [1] deals with T1, Epidermal growth factor receptor (Homo sapiens, UniProt P00533). As to the kind of experiment: Inhibition of erbB1 fusion protein expressed in baculovirus by ELISA. In general terms: An ELISA detects its analyte on a solid surface through an enzyme-linked reagent.
The target in assay [2] is T1, Epidermal growth factor receptor. As to the kind of experiment: Inhibition of EGF stimulated human erbB1 autophosphorylation in NIH3T3 cells.

On to `CC(C)N(CC#CC(=O)Nc1ccc2ncnc(Nc3ccc(F)c(Cl)c3)c2c1)C(C)C`, for which the IC50 in assay [1] came to 4.2 nM; in assay [2], 11 nM.
